# HCMV UL50-53 inh = inhibitors of HCMV UL50-UL53 nuclear egress complex interaction. HTRF UL50-UL53 interaction, normalized percent inhibition. inhibition, % (no concentration beside the values). 0.15% of 190,000 active. AID 1918969; in the data active = inhibition above about 27%, passing the limit was not always enough
# GIV-Gai inh = blocks GIV peptide binding to rat Galpha-i3; Galpha-i3/FITC-GIV peptide fluorescence polarization, 90 min; stronger effect = lower value; scaled: aluminum fluoride 0%, vehicle 100%; P08753; hit rate 0.42% among 210,000; AID 1224905; percent of control (FP), % (test concentration not listed);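 active = replicate mean at 85% of control or lower, very high polarization wells dropped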;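 also: wells of about 15 µL received 100 nL stock; the first replicate is given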
# GIV-Gai FP conf = GIV-Galpha-i3 inhibition, FP confirmation. AID 1259350. fluorescence polarization, mP at 100 µM. shares compounds with GIV-Gai inh. 38% of 580 active. FITC-GIV peptide binding to Galphai3, fluorescence polarization; hits give low values;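 active = inhibition score of 15 or more, meaning 100 minus mean polarization as percent of control over three replicates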;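 also: lower mP means peptide displaced from Galphai3 so more inhibition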
# GIV-Gai AS conf = GIV-Galpha-i3 inhibition, AlphaScreen confirmation. shares compounds with GIV-Gai inh. AlphaScreen Galphai3-GIV binding, purified proteins, 90 min; hits give low values. AlphaScreen counts at 100 µM. 39% of 580 active. AID 1259351;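 active = inhibition score at or above a set limit, where the score is 100 minus the three-replicate mean percent of control signal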
# Numbers without * were called inactive; . = no result given. The list is not random: actives were taken first. Their share in the collection is about 0.43%.
# Start of the data: the first 4 records, ahead of the listing:
(1) CCCn1nnc2cc(S(=O)(=O)N3CCCC(C(=O)NCc4ccc(C)cc4)C3)ccc21 (configuration not stated)
(2) Cc1ccc(-n2ccn3c(CCC(=O)NCCc4c[nH]c5ccccc45)nnc3c2=O)cc1C
(3) O=C(Nc1ccc(F)cc1)c1ccccc1OCc1nc(-c2ccccc2)no1
(4) CCOc1ccc(C(=O)CSc2nnc(-c3ccco3)c(-c3ccco3)n2)cc1NC(=O)CC

Compound	1	2	3	4
HCMV UL50-53 inh	0	-11	4	-29
GIV-Gai FP conf	.	.	.	.
GIV-Gai AS conf	.	.	.	.
GIV-Gai inh	105	106	106	103

# Main list, from the first entry:
(1) CCCn1nnc2cc(S(=O)(=O)N3CCCC(C(=O)NCc4ccc(C)cc4)C3)ccc21 (configuration not stated)
(2) Cc1ccc(-n2ccn3c(CCC(=O)NCCc4c[nH]c5ccccc45)nnc3c2=O)cc1C
(3) O=C(Nc1ccc(F)cc1)c1ccccc1OCc1nc(-c2ccccc2)no1
(4) CCOc1ccc(C(=O)CSc2nnc(-c3ccco3)c(-c3ccco3)n2)cc1NC(=O)CC
(5) O=C(c1ccc(NC(=O)N2CCCCc3ccccc32)cc1)N1CCN(c2ccccc2F)CC1
(6) CSc1scc2c1C(=O)/C(=C/N(C)C)CC2
(7) CSc1scc2c1C(=O)CC(C)(C)C2
(8) CC(C)CC(=O)N1c2ccccc2NC2=C(C(=O)CC(C)(C)C2)C1c1ccc(Cl)cc1 (configuration not stated)
(9) Oc1ccc2ncccc2c1C(Nc1ccccn1)c1ccco1 (configuration not stated)
(10) Oc1ccccc1C(Nc1ccccn1)c1ccc2cccnc2c1O (configuration not stated)

Compound	1	2	3	4	5	6	7	8	9	10
HCMV UL50-53 inh	0	-11	4	-29	-2	-84	-8	15	-4	-62
GIV-Gai FP conf	.	.	.	.	.	29*	.	.	69	.
GIV-Gai AS conf	.	.	.	.	.	1880*	.	.	5282*	.
GIV-Gai inh	105	106	106	103	105	14*	103	99	79*	.

(11) CC1(C(=O)NC2CCCC2)Cn2c(ccc2-c2ccccc2)C(=O)N1Cc1ccccc1 (configuration not stated)
(12) CCCCN(CC)c1ccc2nnc(CCc3nc(-c4ccc(C)cc4)no3)n2n1
(13) CC(C)(C)n1nc2c(c1NC(=O)CC1CCCCC1)CS(=O)C2 (configuration not stated)
(14) COc1ccc(-c2c(C#N)c(N)n3c(nc4ccccc43)c2C#N)cc1O
(15) COc1ccc(-c2c(C#N)c(N)n3c(nc4ccccc43)c2C#N)cc1OC
(16) O=C(Oc1ccc(-c2csnn2)cc1)c1cccnc1
(17) Cc1cccc(C)c1NC(=O)C1(N(Cc2ccccc2)C(=O)COc2ccc(Cl)cc2Cl)CCC(C(C)(C)C)CC1 (configuration not stated)
(18) COC(=O)c1ccc(-c2nnc(-c3ccc(N(C)C)cc3)o2)cc1
(19) COC(=O)c1ccc(-c2ncc(-c3ccc(N(C)C)cc3)o2)cc1
(20) O=C1Nc2ccccc2Oc2ncccc21

Compound	11	12	13	14	15	16	17	18	19	20
HCMV UL50-53 inh	-2	.	-11	.	-8	-3	.	-29	6	0
GIV-Gai FP conf	.	.	.	.	63	.	.	.	71	.
GIV-Gai AS conf	.	.	.	.	61581	.	.	.	48206	.
GIV-Gai inh	103	101	.	105	83*	95	99	.	87	110

(21) COCc1nnc(C(=O)Nc2ccc(C(=O)N3CCN(c4ccccn4)CC3)cc2)s1
(22) O=c1cc(CN2CCN(CCO)CC2)nc2nc(-c3ccccc3)[nH]n12
(23) CCN(C(=O)Cn1ncc2c(=O)oc3ccccc3c21)c1cc(OC)ccc1OC
(24) CCOc1ccccc1N(CC)C(=O)Cn1ncc2c(=O)oc3ccccc3c21
(25) c1ccc(SCc2nnc3sc(-c4cccnc4)nn23)cc1
(26) Cc1ccc(C)n1-c1nnc(N2CCCC(C(=O)O)C2)s1 (configuration not stated)
(27) Cc1cccc(NC(=O)C2CCCN(c3nnc(-n4c(C)ccc4C)s3)C2)c1C (configuration not stated)
(28) Nc1n[nH]c2cc(=O)[nH]c(O)c12
(29) Cc1cc2c(=O)[nH]nc(N)c2c(=O)[nH]1
(30) CCNc1nc(N)nc(OCCNC(C)=O)n1

Compound	21	22	23	24	25	26	27	28	29	30
HCMV UL50-53 inh	-6	-19	4	-8	-16	.	-10	110*	-22	12
GIV-Gai FP conf	.	.	65	.	.	59	.	45*	.	.
GIV-Gai AS conf	.	.	47620	.	.	7556*	.	7988*	.	.
GIV-Gai inh	109	95	86	100	110	87	103	48*	105	101

(31) O=C(Nc1ccncc1)c1ccc(Oc2cc(Cl)cc(Cl)c2)o1
(32) N#Cc1c(/N=C/c2ccccc2)oc(-c2ccccc2)c1-c1ccccc1
(33) N#Cc1c(/N=C/c2ccc(Cl)c(Cl)c2)oc(-c2ccccc2)c1-c1ccccc1
(34) Cc1cccc(C(=O)NCC(c2ccccc2)N(C)C)c1 (configuration not stated)
(35) COc1ccc(-c2noc(-c3cn(Cc4ccc(NS(=O)(=O)c5ccc(Cl)cc5)cc4)cn3)n2)cc1OC
(36) Cc1ccc(CNC(=O)c2cccn2-c2nnc(N3CCOCC3)s2)cc1
(37) O=C(O)CSCC(=O)N1CCN(c2cc(C(F)(F)F)nc3ccccc23)CC1
(38) O=C(C1CCCCC1)N1CCN(c2cc(C(F)(F)F)nc3ccccc23)CC1
(39) CCC1COC(C)CN1 (configuration not stated)
(40) CCOc1ccc(OCC)c(NC(=O)C2CCN(C(=O)c3cccn3-c3cccnc3)CC2)c1

Compound	31	32	33	34	35	36	37	38	39	40
HCMV UL50-53 inh	2	.	.	-5	-6	-15	-48	11	-10	-20
GIV-Gai FP conf	.	.	12*	.	.	.	72	.	.	.
GIV-Gai AS conf	.	.	46826	.	.	.	48255	.	.	.
GIV-Gai inh	104	113	73*	.	100	108	91	112	.	106

(41) O=[N+]([O-])c1ccc(NCCCO)cc1Sc1nc2ccccc2[nH]1
(42) O=[N+]([O-])c1ccc(N2CCCCC2)cc1Sc1nc2ccccc2[nH]1
(43) O=C(Nc1ccc(-c2nc3ccccc3s2)cc1)c1ccccn1
(44) COc1ccc2c(c1)N(C1CCCCC1)/C(=C1/SC(=S)N(C)C1=O)S2
(45) COc1ccc2c(c1)N(C)/C(=C1/SC(=S)N(C)C1=O)S2
(46) CCOc1cc2sc(N3CCC(C(=O)NCCCN4CCN(C)CC4)CC3)nc2cc1Br
(47) N#Cc1ccsc1NC(=O)CN1CCc2ccccc2C1
(48) O=c1[nH]n(-c2ccc(S(=O)(=O)N3CCc4ccccc43)cc2)c(=O)c2ccccc12
(49) Oc1ccc(C=Nc2ccc(N3CCOCC3)cc2)cc1O
(50) CCN1CCN(c2ccc(N=Cc3cc(I)ccc3O)cc2)CC1

Compound	41	42	43	44	45	46	47	48	49	50
HCMV UL50-53 inh	.	.	.	.	-3	16	9	-68	-29	-29
GIV-Gai FP conf	.	62	.	.	72	.	.	.	.	81
GIV-Gai AS conf	.	54142	.	.	33947	.	.	.	.	28751
GIV-Gai inh	111	88	105	109	94	103	.	102	.	28*

(51) Cc1ccc(C)c2nc(SCC(=O)NC3CCCCC3)c(C#N)cc12
(52) Cc1ccc(NC(=O)c2sc3nc4c(c(-c5ccco5)c3c2N)CCCC4)cc1
(53) Cc1ccc(NC(=O)c2sc3nc4c(c(-c5ccco5)c3c2N)CCC4)cc1
(54) CC(C)NC(=O)CSc1nc2ccccc2n2c(C(C)C)nnc12
(55) CCOC(=O)c1[nH]c(=O)c2ccccc2c1O
(56) Cc1ccc(C(=O)c2[nH]c(=O)c3ccccc3c2O)c(C)c1
(57) CCN1CCSc2ccc(C(=O)Nc3c(F)c(F)c(F)c(F)c3F)cc21
(58) CN1C(=O)NC2(O)C(=O)c3ccccc3C12O (configuration not stated)
(59) CCCN1C(=O)NC2(O)C(=O)c3ccccc3C12O (configuration not stated)
(60) CC(=O)N1CC(=O)N(O)C1c1ccc(Cl)cc1Cl (configuration not stated)

Compound	51	52	53	54	55	56	57	58	59	60
HCMV UL50-53 inh	-13	.	.	-58	-12	60*	-2	.	.	-2
GIV-Gai FP conf	.	.	65	.	.	61	.	.	57	.
GIV-Gai AS conf	.	.	50669	.	.	47319	.	.	47718	.
GIV-Gai inh	104	103	76*	108	110	81*	100	110	77*	99

(61) COC(=O)c1sccc1NC(=O)N1CCCC1c1cc(C)on1 (configuration not stated)
(62) Nc1nonc1C(=O)NCCN=Cc1ccccc1O
(63) Nc1nonc1C(=O)NN=c1c(=O)c2ccccc2c1=O
(64) Cc1cc2c(n1-c1ccc(C(=O)O)cc1)CCCC2

Compound	61	62	63	64
HCMV UL50-53 inh	.	-2	-20	66*
GIV-Gai FP conf	.	.	59	58*
GIV-Gai AS conf	.	.	25933*	3001*
GIV-Gai inh	102	106	80*	79*

# Screening results deposited in PubChem by ICCB-Longwood Screening Facility, Harvard Medical School.
